Apparent affinities of Ab-14 variants for a coronavirus HR2 peptide

Reference: Engelhart et al. 2022, doi:10.1038/s41597-022-01779-4. File: FLAb, binding data.

Target: peptide PDVDLGDISGINAS, taken from heptad repeat 2 (HR2) of SARS-CoV-2 spike.

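The starting antibody came from a phage panning campaign against this peptide. The library (AAYL49) carries one to three amino acid substitutions per variant, with no insertions or deletions. AlphaSeq pools MATa yeast showing the antibodies with MATalpha yeast showing the peptide. The frequency of each diploid, read from paired DNA barcodes, reflects how well the two displayed proteins bind. A regression on co-assayed BCL2-family reference pairs converts the normalised counts of each replicate to an apparent Kd. The assay was run in three technical replicates.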

Each scFv is VH, three GGGGS repeats, VL, as in the parent Ab-14, and differs from it in the CDRs of the heavy chain only.
VH: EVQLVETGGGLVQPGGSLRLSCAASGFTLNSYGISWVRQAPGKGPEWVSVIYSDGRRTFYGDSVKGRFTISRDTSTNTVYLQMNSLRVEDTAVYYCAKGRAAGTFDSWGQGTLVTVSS
VL: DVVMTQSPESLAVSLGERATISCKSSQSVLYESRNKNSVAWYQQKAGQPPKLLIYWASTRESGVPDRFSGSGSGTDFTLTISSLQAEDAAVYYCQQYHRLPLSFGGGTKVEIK

The parent's heavy chain CDRs are GFTLNSYGIS, VIYSDGRRTFYGDSVK, GRAAGTFDS; each variant's own CDRs replace them letter for letter.
Every variant below is changed at F27 of the VH (sequential numbering).
Values are log10 of the apparent Kd in nM; lower means stronger binding.
Replicates are averaged; those with no signal do not enter the mean.
A pair that was not seen in any replicate is written "no signal"; this usually means weak binding, but a binder can also be missed.
As a blank, each scFv also met three strains without target: over library AAYL49, 15% of these pairings were detected, typically at 4.06 and seldom below 2.83.
Parent in this assay: reference entry 0.65, copy in this library 4.11 (one replicate of three).

Variant GGTLNSHGIS | VIYSDGRRTFYGDSLK | GRAAGTFDS showed no signal (0 of 3 replicates). For GVTLNSYGIS | VIYWDGARTFYGDSVK | GRAAGTFDS, the assay gave 5.30 (1 of 3 replicates). For GCTLNSYDIS | VIYSDGRRTFYGDSVK | GRAAGTFWS, the assay gave no signal (0 of 3 replicates). Variant GYTLNSYGIS | VIYSDGQETFYGDSVK | GRAAGTFDS showed 2.73 (1 of 3 replicates). Variant GWTLNSYGIS | VIYMDGRRTFYGDIVK | GRAAGTFDS gave no signal (0 of 3 replicates).

Variant GRTLNSYGIS | VIYRDGRRTFYGDSVR | GRAAGTFDS showed 4.07 (1 of 3 replicates). Variant GLTLNSYGIS | VIYSDGNRTFYGDAVK | GRAAGTFDS gave 3.14 (2 of 3 replicates). Variant GKTLNSYGIS | VIYSDGRRTFYYDSVK | GRAAATFDS gave 4.05 (2 of 3 replicates). Variant GHTLNSYGFS | VIYSDGRRTFYGDAVK | GRAAGTFDS showed no signal (0 of 3 replicates). With GYTLNSYGIS | VIYSDGRRTFYGDSVK | GRAAGTFDV the result was 2.17 (3 of 3 replicates).

With GTTLNSQGIS | VIYSDGRRTFYGDSVK | GRAAGTFDS the result was no signal (0 of 3 replicates). Variant GNTLNSYGIS | VIYSDGRRTFYGDSVK | SRAAGTFDS showed no signal (0 of 3 replicates). Variant GLTLNSYGIS | VIYDDGRRTFYGDSVK | GRAANTFDS showed no signal (0 of 3 replicates). For GITLNSYGIS | VRYSDGRRTFYGDSVK | GRGAGTFDS, the assay gave 4.00 (1 of 3 replicates). Variant GNTLNSYGIS | VIYSDHRRTFYGDLVK | GRAAGTFDS showed 4.90 (1 of 3 replicates).

Variant GITLNSYGIS | VIYSDGRRTFYGDSVK | GRAAGRFTS gave 2.45 (3 of 3 replicates). With GKTLNSYGIY | VIYSDGRRTFYGDLVK | GRAAGTFDS the result was no signal (0 of 3 replicates). For GNTLNSYGFS | VIYSDGRDTFYGDSVK | GRAAGTFDS, the assay gave no signal (0 of 3 replicates). Variant GRTLNSYGIS | VIYYDGRRTFYGFSVK | GRAAGTFDS showed 4.16 (1 of 3 replicates). Variant GTTLNSYGII | VIYSDGRRTFYGDSVL | GRAAGTFDS gave no signal (0 of 3 replicates).

With GRTLNSYGIS | DIYEDGRRTFYGDSVK | GRAAGTFDS the result was 5.60 (1 of 3 replicates). Variant EMTLNSYGIS | VIYSDGRRYFYGDSVK | GRAAGTFDS showed 3.65 (3 of 3 replicates). For GDTLNSYGIS | VIYSDGRRTGYGDSVK | QRAAGTFDS, the assay gave 5.27 (1 of 3 replicates). Variant GDHLNSYGIS | VIYSDGRRTFYGDSVK | NRAAGTFDS showed 2.55 (3 of 3 replicates). Variant AYTLNSYGIS | VIYSDGRRTFQGDSVK | GRAAGTFDS showed no signal (0 of 3 replicates).

Variant GGTLNSYGIS | MIYSDGRRTFYGDSVK | GRAAGHFDS showed no signal (0 of 3 replicates). With GITLNWYGIS | VIYSDGRRTFYGDSVK | GRAAGTFCS the result was 3.92 (2 of 3 replicates). Variant GISLNSYGIS | GIYSDGRRTFYGDSVK | GRAAGTFDS showed 4.95 (1 of 3 replicates). Variant GETLNSYGIS | VIYSDGRRTSYGDSVK | GRNAGTFDS gave 0.26 (3 of 3 replicates). Variant GHTLNSYGIS | VIYSDGRRTFYWDSVK | GRPAGTFDS gave no signal (0 of 3 replicates).

For GPTLNSYGIS | VIYSDGRRTFYGDSVK | GRAAGTTDS, the assay gave 3.25 (1 of 3 replicates). Variant GGTLNSYGIS | VIYSYGRRTFYGDSVK | GRAALTFDS showed no signal (0 of 3 replicates). Variant GLTLNSYGIS | VIYSDGRRTFYGYSVK | GRAAGSFDS showed no signal (0 of 3 replicates). Variant GKTLNSYGIS | VIYSDGRRTFYGDSVK | YRAASTFDS showed 4.18 (3 of 3 replicates). With GETSNSYGIS | VIYSDGRRTFYGDSVK | GRASGTFDS the result was no signal (0 of 3 replicates).

Variant GSTLNSYGIS | VIYSDGRRTFYGDSVK | GRAAQTFDS gave 2.20 (3 of 3 replicates).

The 4 strongest on average among those seen in every replicate, once more:

The variant GETLNSYGIS | VIYSDGRRTSYGDSVK | GRNAGTFDS gave 0.26 (3 of 3 replicates).
The variant GYTLNSYGIS | VIYSDGRRTFYGDSVK | GRAAGTFDV gave 2.17 (3 of 3 replicates).
The variant GSTLNSYGIS | VIYSDGRRTFYGDSVK | GRAAQTFDS gave 2.20 (3 of 3 replicates).
The variant GITLNSYGIS | VIYSDGRRTFYGDSVK | GRAAGRFTS gave 2.45 (3 of 3 replicates).